This passage reports IC50 results from patent publication US20240124427A1, “HYDROXYHETEROCYCLOALKANE-CARBAMOYL DERIVATIVES” (Idorsia Pharmaceuticals Ltd, priority 2021, published 2024).

Sequences of proteins named here, by UniProt entry; tags and fusion partners are left off. Residues count along the entry.
UniProt P09382, 2-135 limits assumed: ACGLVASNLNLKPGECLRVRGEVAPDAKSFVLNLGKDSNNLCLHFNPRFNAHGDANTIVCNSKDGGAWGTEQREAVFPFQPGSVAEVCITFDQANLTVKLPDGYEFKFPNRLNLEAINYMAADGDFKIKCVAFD

Broadly, the IC50 is the concentration that gives 50% inhibition.

The target of this assay is human Gal-1 (hGal-1) (Homo sapiens, UniProt P09382). The following applies: read-out: Gal-1 IC50; Activity on hGal-1; mean values of several measurements; mixture of diastereomers measured where not separated.
On to `CO[C@@H]1[C@@H](n2cc(-c3cc(F)c(F)c(F)c3)nn2)[C@@H](O)[C@@H](CO)O[C@H]1C(=O)N(c1cc(Br)cc(C#N)c1)[C@H]1CCNC[C@@H]1O`, for which the 50% inhibitory concentration (IC50) worked out at 51 nM. Under `CO[C@@H]1[C@@H](n2cc(-c3cc(F)c(F)c(F)c3)nn2)[C@@H](O)[C@@H](CO)O[C@H]1C(=O)N(c1cc(Cl)cc(Cl)c1)[C@H]1CCNC[C@@H]1O` stands 49 nM. Under `CO[C@@H]1[C@@H](n2cc(-c3cc(F)c(F)c(F)c3)nn2)[C@@H](O)[C@@H](CO)O[C@H]1C(=O)N(c1cc(C)cc(Br)c1)[C@@H]1CCNC[C@H]1O` stands 1170 nM. Under `CO[C@@H]1[C@@H](n2cc(-c3cc(F)c(F)c(F)c3)nn2)[C@@H](O)[C@@H](CO)O[C@H]1C(=O)N(c1cc(C)cc(Br)c1)[C@H]1CCNC[C@@H]1O` stands 76 nM.
